# Data: PubChem BioAssay AID504832 (National Center for Advancing Translational Sciences (NCATS), 2011)
# About 18,000 (5.8%) of roughly 310,000 compounds were called active. The source calls these results inconclusive, neither active nor inactive. The call rests on the fitted dose curve; in most records, active means well fitted inhibition curve with a large enough effect; inconclusive means small, poorly fitted or top-dose-only effect, or another doubt; inactive means no such curve, though single readings can be large or run the other way.
# Experiment: Primary qHTS for delayed death inhibitors of the malarial parasite plastid, 48 hour incubation
# Settings: P. falciparum luciferase growth in erythrocytes
# From the text: The goal of this screen is to discover new antimalarial compounds that act by inhibiting the development of the apicoplast in the malarial parasite Plasmodium falciparum. The biochemical processes that make this organelle essential for erythrocytic stage parasites are not well understood. However, antibiotics such as azithromycin and tetracycline, which target the apicoplast translational machinery, have a potent antimalarial effect.
# We have developed a cell-based assay that measures parasite growth based on the expression of an integrated copy of a firefly luciferase reporter. To detect small molecules that cause this "delayed death" phenotype, erythrocytes infected with the luciferase-expressing parasites were incubated with compounds for either one or two generations, corresponding to 48 and 96 hours, respectively. Compounds that inhibit parasite growth in the second generation, but not the first, should be enriched in antimalarials that target the apicoplast. Growth inhibition is detected by a decrease in luciferase activity.
# Assay Provider: David Fidock and Eric Ekland, Columbia University
# Keywords: NIH Roadmap, MLPCN, MLI, MLSMR, qHTS, NCGC, qHTS, malaria, luciferase, viability
# Four microliters of culture medium (RPMI 1640 with 0.5% w/v Albumax (GIBCO), 24 mM sodium bicarbonate and 10 ug/mL gentamycin) were dispensed by a Multi-drop Combi into white solid 1536-well plates (Grenier) and 23 nL compound was added by a pin tool. Four microliters of infected erythrocytes (2% hematocrit, 0.1% parasitemia final concentration) in culture medium were dispensed and the plates incubated for 48 hours at 37 C in 5% CO2. Two microliters of luciferase detection reagent was added and luminescence was detected by a ViewLux (PerkinElmer) reader.
# Potency means the concentration at half of the fitted maximal effect.
row,Compound,Potency
1,O=C(Nc1ccncc1[N+](=O)[O-])c1ccc([N+](=O)[O-])cc1[N+](=O)[O-],inconclusive: 9.28 µM
2,CCC(C)N(CC(C)C)C(=S)SC(NC(C)=O)C(Cl)(Cl)Cl (centres undefined),inconclusive: 11.7 µM
3,Cc1cc(=O)[nH]c(N[N+](=O)[O-])n1,inconclusive: 0.233 µM
4,CCN(CC)C(=S)SC(NC=O)C(Cl)(Cl)Cl (centres undefined),inconclusive: 9.28 µM
5,O=[N+]([O-])c1cc([N+](=O)[O-])c(-c2ccn[nH]2)s1,inconclusive: 18.5 µM
6,Nc1ccccc1[As](=O)(O)c1ccccc1,inconclusive: 2.62 µM
7,NC(=O)Nc1ccc([As](=O)(O)O)cc1,inconclusive: 11.7 µM
8,Cc1ccccc1C(=O)O/N=C(/C(N)=O)P(=O)(OC(C)C)OC(C)C,inconclusive: 1.04 µM
9,O=[As](O)(O)c1cccnc1,inconclusive: 2.33 µM
10,O=[As](O)(c1cccc(O)c1)c1cccc(O)c1,inconclusive: 4.15 µM
11,Cc1ccc(NCCc2c([N+](=O)[O-])cc([N+](=O)[O-])cc2[N+](=O)[O-])cc1,inconclusive: 10.4 µM
12,CCC1=CC2Cc3nc4ccc(Cl)cc4c(N)c3C(C1)C2 (centres undefined),inconclusive: 16.5 µM
13,CC(C)(C)C(=O)NC(Sc1ncccn1)C(Cl)(Cl)Cl (centres undefined),inconclusive: 14.7 µM
14,CC(=O)NC(SC(=S)N(C)C)C(Cl)(Cl)Cl (centres undefined),inconclusive: 16.5 µM
15,C=C(CO)CC1CC(O)[C@]2(C)OC3CC4OC5C[C@]6(C)O[C@]7(C)CCC8OC9C[C@]%10(C)OC%11C(C)=CC(=O)OC%11CC%10OC9C[C@@H](C)C8OC7CC6O[C@]5(C)C/C=C\C4OC3CC2O1 (some centres undefined),inconclusive: 2.33 µM
16,c1ccc(-c2nn[nH]n2)c(-c2nn[nH]n2)c1,inconclusive: 0.329 µM
17,O=C(C[N+]12CCC(CC1)C(OC(=O)c1ccccc1)C2)c1ccc([N+](=O)[O-])cc1 (centres undefined),inconclusive: 10.4 µM
18,CC(=O)NC(SC(=S)N(CC(C)C)CC(C)C)C(Cl)(Cl)Cl (centres undefined),inconclusive: 14.7 µM
19,CN(C)C(=O)Oc1noc2ccccc12,inconclusive: 2.62 µM
20,O=c1c2cc([N+](=O)[O-])ccc2[nH]c2c([N+](=O)[O-])cc([N+](=O)[O-])cc12,inconclusive: 14.7 µM
21,C=C(C=O)C[C@@H]1C[C@H](O)C2OC3C[C@]4(C)OC5/C=C\CC6OC7C(CC=CCC6OC5CCCC4OC3CC2O1)OC1CC2OC3CC(=O)OC3C[C@@H](C)C[C@@]2(C)OC1C[C@@H]7C (some centres undefined),inconclusive: 4.15 µM
22,CC1=CC(=O)OC2CC3OC4C[C@@H](C)C5OC6CC7O[C@]8(C)C/C=C\C9OC%10CC%11OC(CC(C)CO)CC(O)[C@]%11(C)OC%10CC9OC8C[C@]7(C)O[C@]6(C)CCC5OC4C[C@]3(C)OC12 (some centres undefined),inconclusive: 1.65 µM
23,Clc1ccc(Cl)c(NC2=NCC(CBr)S2)c1 (centres undefined),inconclusive: 9.28 µM
24,COc1ccc(O)c2c(=O)c3c(OC)cc4c(c3oc12)C1C=COC1O4 (centres undefined),inconclusive: 16.5 µM
25,CCc1nc2c(n1)c1c(non1O)c1c2no[n+]1[O-],inconclusive: 11.7 µM
26,O=[N+]([O-])c1cc([N+](=O)[O-])c(CCNc2ccccc2)c([N+](=O)[O-])c1,inconclusive: 18.5 µM
27,Nc1ccc([As](=O)(O)c2ccc(N)cc2)cc1,inconclusive: 3.29 µM
28,CC1CCN(C(=O)Oc2c(Cl)cc(Cl)c3cccnc23)CC1,inconclusive: 13.1 µM
29,O=C(Nc1cc([As](=O)(O)O)ccc1O)c1ccccc1,inconclusive: 4.15 µM
